Key:
SIRT1 protein expression = assay: SIRT1 expression by western blot after treatment of LPS and interferon beta to macrophage originated from mouse marrow; assay type: cell-based, C57BL/6 mouse; details: interferon beta 100 units/ml (of 0, 100, 200, 500 units/ml)
Procedure: Femur and tibia marrow cells of C57BL/6 mouse have been differentiated in culture solution containing M-CSF (10 ng/ml), and then have been used as mouse macrophage. LPS (0, 100, 500, 1000 ng/ml) and interferon beta (0, 100, 200, 500 units/ml) have been injected to the macrophage by concentrations, and the SIRT1 expression amount has been compared by western blot. Further, the SIRT1 protein expression amount when LPS has been injected along with IFN-β blocking antibody has been measured.

[1] = test system: macrophage originated from the mouse marrow; assay: Secretion of pro-inflammatory and anti-inflammatory cytokines by LPS-treated macrophage (Elisa); assay type: cell-based; details: LPS 100 ng/ml 24 hours, adenovirus-SIRT1 10,000 MOI or interferon beta 100 units/ml, cell culture medium
Procedure: After infecting the macrophage with the adenovirus-SIRT1 by 10,000 MOI (multiplicity of infection), LPS 100 ng/ml has been injected for 24 hours. Further, LPS 100 ng/ml has been used along with interferon beta 100 units/ml for 24 hours, and then the amount of secretion of pro-inflammatory and anti-inflammatory cytokines of the cell culture medium has been measured by Elisa. The experiment has been performed three times, and the result has been expressed by the average±standard deviation.

mouse injected with LPS = assay: Survival rate of mouse after injecting LPS after pre-treatment of adenovirus-SIRT1 or interferon beta; assay type: in vivo; details: interferon beta 1000 units per 20 g tail vein, LPS 15˜20 mg/kg after 30 minutes
Procedure: Adenovirus-LacZ, which is a control gene delivery system, and adenovirus-SIRT1, which is the SIRT1 gene delivery system, are injected into the mouse tail vein by 3×10^8 pfu (plaque forming unit), and LPS 15˜20 mg/kg after 48 hours. Then the survival rate of the mouse has been observed for 10 days.
Further, interferon beta 1000 units or the same amount of salt solution per 20 g of the mouse weight is injected into the mouse tail vein, and LPS 15˜20 mg/kg has been injected after 30 minutes. Then the survival rate of the mouse has been observed for 10 days.

mouse sepsis model (CLP) = assay: Survival rate in mouse sepsis model induced by cecal ligation and Puncture (CLP); assay type: in vivo; details: interferon beta 1000 units per 20 g tail vein two hours after CLP operation
Procedure: In a mouse sepsis model, which is induced through cecal ligation and Puncture (CLP) surgery, the following experiment has been performed to check the survival rate change according to the injection of SIRT1 and interferon beta.
Adenovirus-LacZ or adenovirus-SIRT1 has been injected into the mouse tail vein by 3×10^8 pfu. After 24 hours, the anesthetic is injected into the abdominal cavity, and the sepsis has been caused through CLP. That is, after the center of the abdomen of the mouse is cut, the appendix is exposed to the outside so that the end of the ileocecal valve is ligated by the silk suture, two holes are made using a needle, and then a certain amount of fecal materials are discharged. The appendix as well as fecal materials were inserted again into the abdomen, then the abdomen was stitched, and then a physiological salt solution was injected through a hypodermic injection. After two hours of SLP operation, interferon beta 1000 units or the same amount of salt solution per 20 g of the mouse weight have been injected into the mouse tail vein.

B1: interferon beta (protein, UniProt P01574 22-187, looked up)
Interferon beta: MSYNLLGFLQRSSNFQCQKLLWQLNGRLEYCLKDRMNFDIPEEIKQLQQFQKEDAALTIYEMLQNIFAIFRQDSSSTGWNETIVENLLANVYHQINHLKTVLEEKLEKEDFTRGKLMSSLHLKRYYGRILHYLKAKEYSHCAWTIVRVEILRNFYFINRLTGYLRN
notes: cytokine that promotes the expression of SIRT1; SIRT1 expression inducer
- SIRT1 expression (SIRT1 protein expression): most significantly increased
- IL-6 decrease relative to LPS treatment [1]: 54%
- IL-10 increase [1]: 4.7 times
- MCP-1 change relative to LPS treatment [1]: slightly decreased
- TNF-α decrease relative to LPS treatment [1]: 29%
- survival rate of the mouse after 10 days (mouse injected with LPS): 70%
- survival rate (mouse sepsis model (CLP)): 76%

Reference: patent US11413333B2, “Composition containing inducer of SIRT1 expression for preventing or treating sepsis or septic shock” (STEMDR INC., priority 2011, dated 2022)
